Assay results: ChEMBL document CHEMBL4613246, “Antimycobacterial Rufomycin Analogues from Streptomyces atratus Strain MJM3502” (J Nat Prod, 2020)

Legend:
[1] = tested on: Vero; experiment: cells; details: Chlorocebus sabaeus
[2] = tested on: Mycobacteroides abscessus; experiment: Antimycobacterial activity against Mycobacterium abscessus ATCC 19977 assessed as reduction in microbial growth after 7 days by alamar blue assay; format: functional; details: ATCC 19977, 168 h

## C=CC(C)(C)n1cc(C[C@@H]2NC(=O)[C@H](CC(C)C)N(C)C2=O)c2ccccc21
[1]
  IC50: > 100 µM
[2]
  MIC: > 10 µM

## C/C=C/C[C@@H]1NC(=O)[C@H](CC(C)C)NC(=O)[C@H](CC(C)C)N(C)C(=O)[C@H](C)NC(=O)[C@H](Cc2ccc(O)c([N+](=O)[O-])c2)NC(=O)[C@H](CC(C)C)NC(=O)[C@H](Cc2cn(C(C)(C)[C@H]3CO3)c3ccccc23)NC1=O
[1]
  IC50: > 100 µM
[2]
  MIC: > 10 µM

## C/C=C/C[C@@H]1NC(=O)[C@H](CC(C)C)NC(=O)[C@H](C[C@H](C)CO)N(C)C(=O)[C@H](C)NC(=O)[C@H](Cc2ccc(O)c([N+](=O)[O-])c2)NC(=O)[C@H](CC(C)C)N(C)C(=O)[C@H](Cc2cn(C(C)(C)[C@H]3CO3)c3ccccc23)NC1=O
[1]
  IC50: > 100 µM

## C/C=C/C[C@@H]1NC(=O)[C@H](CC(C)C)NC(=O)[C@H](C[C@@H](C)CO)N(C)C(=O)[C@H](C)NC(=O)[C@H](Cc2ccc(O)c([N+](=O)[O-])c2)NC(=O)[C@H](CC(C)C)N(C)C(=O)[C@H](Cc2cn(C(C)(C)[C@H]3CO3)c3ccccc23)NC1=O
[1]
  IC50: > 100 µM

## C=CC(C)(C)n1cc(C[C@@H]2NC(=O)[C@H](C/C=C/C)NC(=O)[C@H](CC(C)C)NC(=O)[C@H](CC(C)C)N(C)C(=O)[C@H](C)NC(=O)[C@H](Cc3ccc(O)c([N+](=O)[O-])c3)NC(=O)[C@H](CC(C)C)N(C)C2=O)c2ccccc21
[1]
  IC50: 100 µM
[2]
  MIC: > 10 µM

## C=CC(C)(C)n1cc(C[C@@H]2NC(=O)[C@H](C/C=C/C)NC(=O)[C@H](CC(C)C)NC(=O)[C@H](CC(C)C)N(C)C(=O)[C@H](C)NC(=O)[C@H](Cc3ccc(O)cc3)NC(=O)[C@H](CC(C)C)N(C)C2=O)c2ccccc21
[1]
  IC50: 89 µM
[2]
  MIC: > 10 µM

## C/C=C/C[C@@H]1NC(=O)[C@H](CC(C)C)NC(=O)[C@H](CC(C)C)N(C)C(=O)[C@H](C)NC(=O)[C@H](Cc2ccc(O)c([N+](=O)[O-])c2)NC(=O)[C@H](CC(C)C)N(C)C(=O)[C@H](Cc2cn(C(C)(C)[C@H](O)CCl)c3ccccc23)NC1=O
[1]
  IC50: > 100 µM
[2]
  MIC: 2.3 µM

## C/C=C/C[C@@H]1NC(=O)[C@H](CC(C)C)NC(=O)[C@H](CC(C)C)N(C)C(=O)[C@H](C)NC(=O)[C@H](Cc2ccc(O)c([N+](=O)[O-])c2)NC(=O)[C@H](CC(C)C)N(C)C(=O)[C@H](Cc2cn(C(C)(C)[C@H]3CO3)c3ccccc23)NC1=O
[1]
  IC50: 94 µM
[2]
  MIC: 1.9 µM

## C/C=C/C[C@@H]1NC(=O)[C@H](CC(C)C)NC(=O)[C@H](CC(C)C(OC)OC)N(C)C(=O)[C@H](C)NC(=O)[C@H](Cc2ccc(O)c([N+](=O)[O-])c2)NC(=O)[C@H](CC(C)C)N(C)C(=O)[C@H](Cc2cn(C(C)(C)[C@H]3CO3)c3ccccc23)NC1=O (stereo partly drawn)
[1]
  IC50: > 10 µM
[2]
  MIC: 2.2 µM

## C=CC(C)(C)n1cc(C[C@@H]2NC(=O)[C@H](C/C=C/C)NC(=O)[C@H](CC(C)C)NC(=O)[C@H](C[C@H](C)CO)N(C)C(=O)[C@H](C)NC(=O)[C@H](Cc3ccc(O)c([N+](=O)[O-])c3)NC(=O)[C@H](CC(C)C)N(C)C2=O)c2ccccc21
[1]
  IC50: > 100 µM
[2]
  MIC: 9.3 µM
